EC50 (µg/ml), luciferase reporter, Promega anti-CTLA-4 blocking assay (CD80/CD86 aAPC/Raji cells with functional cells expressing CTLA-4) data for 1 substance are collected here from patent US20210301021A1.

The assay concerns the target CTLA-4 on the functional cells of the Promega anti-CTLA-4 blocking assay kit (UniProt P16410). The assay can be described thus: cell-based or functional assay.

As for Yervoy (Ipilimumab) (antibody), the EC50 (µg/ml), luciferase reporter, Promega anti-CTLA-4 blocking assay (CD80/CD86 aAPC/Raji cells with functional cells expressing CTLA-4) was found to be 0.933 µg/mL.
